From ChEMBL document CHEMBL1134693, “Synthesis and comparative molecular field analysis (CoMFA) of symmetric and nonsymmetric cyclic sulfamide HIV-1 protease inhibitors” (J Med Chem, 2001)

Assays:
[1] = target: T1, Human immunodeficiency virus type 1 protease (Human immunodeficiency virus 1, UniProt Q72874); test: Inhibition of recombinant HIV-1 protease measured by fluorometric assay
[2] = target: T1, Human immunodeficiency virus type 1 protease; test: Inhibition of HIV-1 protease by fluorometric assay

Ki [1]: 11 nM
Ki [2]: 11 nM
Compound: CNC(=O)c1cccc(CN2[C@@H](COc3ccccc3)[C@@H](O)[C@H](O)[C@H](COc3ccccc3)N(Cc3ccccc3)S2(=O)=O)c1
